Literature values as cited in patent publication US20220265830A1, “LONG-ACTING FORMULATIONS AND VEHICLES” (DURECT CORPORATION, priority 2019, published 2022).

Details: cited from earlier work

For Cc1cc2c(s1)Nc1ccccc1N=C2N1CCN(C)CC1 [Olanzapine], the logP is given as 4.094.
